Target: Variant 791 (trastuzumab with heterodimerising CH3 mutations only, no CH2 mutations) (human)
Test: SPR; ProteOn XPR36, 25 °C; 10 mM HEPES, 150 mM NaCl, 3.4 mM EDTA, 0.05% Tween 20, pH 7.4; trastuzumab variants captured (approx. 500 RU) on amine-coupled recombinant HER-2 (GLM chip); FcγRs injected as analyte, five concentrations in 3-fold dilution; Equilibrium Fit model, mean of two or three runs

Chains of the proteins cited; added tags and fusions are not shown. A change or cut given only in a name is not applied to a line headed by its entry. A line that says so, or that is headed by a name, gives the form on record, which may keep a tag or linker.
Variant 791 (trastuzumab with heterodimerising CH3 mutations only, no CH2 mutations) (human), light, as listed by the source, chain 2 of 2: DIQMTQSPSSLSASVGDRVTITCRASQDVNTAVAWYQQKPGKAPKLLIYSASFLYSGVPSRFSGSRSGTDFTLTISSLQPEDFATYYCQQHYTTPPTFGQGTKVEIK

- Kamut/KaWT (WT: homodimeric trastuzumab): 1.2
Substance: FcγR 2b (from UniProt P31994 43-310) (receptor)
